Laboratory results published in patent publication US7976843B2, “Method for screening peptides for use in immunotherapy” (Institut National de la Santa et de la Recherche Medicale …, priority 2000, dated 2011).

Target: HLA A2.1 molecule (Homo sapiens, UniProt P04439, D140Y/D185E/D98H/E176V/E277Q/G131W/G231S/I119V/I121R/I166T/I218V/L300P/L318F/N151K/N90K/P208A/P217A/Q86G/Q94H/R138H/R169H/T345S)
Assay: Stability of the peptide/HLA A2.1 complex (DC50) on T2 cells, flow cytometry
Format: binding
Experimental: For each incubation time, the cells are then labeled, as indicated above, with the BB7.2 antibody, and analyzed by flow cytometry in order to evaluate the amount of peptide/HLA A2.1 complex present at their surface. […] The DC50 (dissociation complex: DC) is defined as being the time required for the loss of 50% of the HLA A2.1/peptide complexes stabilized at t=0.

In the case of NLQSLTNLL [HBV pol 985], the “DC50” value is reported as less than 2 h and the “DC50 Y1-DC50 WT” value is reported as greater than 6 h.
